Where two headings read alike, the source gives them in different places.
## Sacubitril/Valsartan trisodium
5 ± 2° C., 3 Months
  Chromatographic purity by HPLC: 99.94%
  PXRD: Amorphous
  Water content: 3.86%
5 ± 2° C., 5 Months
  Chromatographic purity by HPLC: 99.96%
  PXRD: Amorphous
  Water content: 3.60%
5 ± 2° C., Initial
  Chromatographic purity by HPLC: 99.90%
  PXRD: Amorphous
  Water content: 3.5%
25 ± 2° C., 3 Months
  Chromatographic purity by HPLC: 99.94%
  PXRD: Amorphous
  Water content: 4.59%
25 ± 2° C., 5 Months
  Chromatographic purity by HPLC: 99.95%
  PXRD: Amorphous
  Water content: 5.5%
25 ± 2° C., Initial
  Chromatographic purity by HPLC: 99.90%
  PXRD: Amorphous
  Water content: 3.50%
